Patent US5300499A, “5-substituted 3-thiophene sulfonamides as antiglaucoma agents” (Allergan, Inc., priority 1992, dated 1994)

Molecular target: T1, pure CA11 enzyme from human erythrocyte (Homo sapiens, UniProt P00918)
T1 construct: pure CA11 enzyme from human erythrocyte; from tissue; host or cells: human erythrocyte
Assay: Carbonic anhydrase activity assay, micromethod of Maren
Assay type: biochemical
Details: concentration that lowers the enzyme activity to half; 0°-4° C.; phenol red endpoint, pH 9.9 to 6.8
Description: Carbonic anhydrase activity was assayed according to the micromethod of Maren (J. Pharmacol. Exptl. Therap., 130, 26-29, 1960). All solutions and reagents were maintained at 0°-4° C. The final assay mixture contained 16 mM phenol red, added enzyme and 62.5 mM sodium carbonate/bicarbonate. Its volume was kept constant at 0.8 mL. The time required for the added enzyme to lower the pH of CO2 -saturated carbonate/bicarbonate buffer from pH 9.9 to 6.8 was measured using the color change of phenol red as endpoint. T1 is the time recorded for the reaction containing no enzyme. T2 is the time recorded for the reaction containing pure CA11 enzyme from human erythrocyte, or an unknown amount in a sample. Enzyme activities (unit) were calculated using the formula:
Unit/ug=(T1 -T2)/(T2 *ug protein used in assay)
IC50 of a carbonic anhydrase inhibitor is the concentration that lowers the enzyme activity to half.

Compound | IC50 [µM]
CN(C)CCOC(=O)c1ccc(C(=O)c2cc(S(N)(=O)=O)cs2)cc1 [5-(4-(2-N,N-dimethylamino-1-ethoxy)carbonylbenzoyl)-3-thiophene sulfonamide] | 0.025
CC(=O)OCc1ccc(C(O)c2cc(S(N)(=O)=O)cs2)cc1 (stereo not shown) [5-(4-acetoxymethylbenzhydrol)-3-thiophene sulfonamide] | 0.021
5-(3-butoxycarbonylbenzoyl)-3-thiophene sulfonamide | 0.025
5-n-Heptyl-3-thiophene sulfonamide [5-heptyl-3-thiophene sulfonamide] | 0.021
